These results are taken from US20250313563A1, “GLYCOGEN SYNTHASE KINASE 3 INHIBITORS AND USES THEREOF” (The Broad Institute, Inc., priority 2022, published 2025).

The chains behind the UniProt entries cited, without tags or fusion partners.
UniProt P49840, whole entry: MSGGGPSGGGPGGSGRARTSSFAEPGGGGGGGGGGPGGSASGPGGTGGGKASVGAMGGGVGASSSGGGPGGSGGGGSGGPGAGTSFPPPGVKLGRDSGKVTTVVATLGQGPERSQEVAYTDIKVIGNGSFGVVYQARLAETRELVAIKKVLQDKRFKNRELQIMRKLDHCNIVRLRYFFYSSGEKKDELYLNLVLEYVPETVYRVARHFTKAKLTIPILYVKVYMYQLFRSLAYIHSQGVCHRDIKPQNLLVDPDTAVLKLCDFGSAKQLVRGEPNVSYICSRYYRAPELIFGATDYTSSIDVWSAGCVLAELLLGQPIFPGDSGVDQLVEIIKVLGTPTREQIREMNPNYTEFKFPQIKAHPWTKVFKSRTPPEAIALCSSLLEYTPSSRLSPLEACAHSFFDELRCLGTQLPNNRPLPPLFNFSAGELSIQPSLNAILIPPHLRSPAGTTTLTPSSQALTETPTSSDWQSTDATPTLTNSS
UniProt P49841, whole entry: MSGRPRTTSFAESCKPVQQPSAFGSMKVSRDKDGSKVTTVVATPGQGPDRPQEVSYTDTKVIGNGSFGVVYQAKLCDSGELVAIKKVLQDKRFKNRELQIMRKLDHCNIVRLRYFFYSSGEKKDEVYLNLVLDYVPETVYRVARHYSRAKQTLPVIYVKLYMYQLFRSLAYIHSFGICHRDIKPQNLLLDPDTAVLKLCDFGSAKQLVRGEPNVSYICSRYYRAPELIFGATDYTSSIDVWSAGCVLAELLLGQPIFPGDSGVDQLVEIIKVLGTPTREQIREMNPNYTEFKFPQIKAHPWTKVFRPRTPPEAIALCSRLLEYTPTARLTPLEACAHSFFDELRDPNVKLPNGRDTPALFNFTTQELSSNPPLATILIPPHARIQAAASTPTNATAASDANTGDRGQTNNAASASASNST

Test [1] deals with GSK3α (GST-full length GSK3α) (Homo sapiens (Human), UniProt P49840). Briefly: GSK3α TR-FRET kinase assay. The test is classed as biochemical.
Test [2] has as its target GSK3b (GST-full length GSK3b) (Homo sapiens (Human), UniProt P49841). Briefly: GSK3b TR-FRET kinase assay. It counts as biochemical. For orientation: TR-FRET usually uses a lanthanide donor and a delayed reading to cut background.
The mark [3] stands for this setting: read-out: GSK3-A TR-FRET BIOCHEMICAL (TR-FRET), GMean, IC50, 1 nM GSK3α, 4 μM ATP, 30 minute preincubation, geometric mean.
Setting [4] is: read-out: GSK3-B TR-FRET BIOCHEMICAL (TR-FRET), GMean, IC50, 1 nM GSK3b, 2 μM ATP, 30 minute preincubation, geometric mean.
Where [5] appears, read: read-out: GSK3-A TR-FRET BIOCHEMICAL (TR-FRET), IC50, 1 nM GSK3α, 4 μM ATP, 30 minute preincubation (Table 16).
The mark [6] stands for this setting: read-out: GSK3-B TR-FRET BIOCHEMICAL (TR-FRET), IC50, 1 nM GSK3b, 2 μM ATP, 30 minute preincubation (Table 16).
The mark [7] stands for this setting: read-out: GSK3-A TR-FRET BIOCHEMICAL (TR-FRET);, 1 nM GSK3α, 4 μM ATP, 30 minute preincubation, Table 16.
[8] abbreviates: read-out: GSK3-B TR-FRET BIOCHEMICAL (TR-FRET);, 1 nM GSK3b, 2 μM ATP, 30 minute preincubation, Table 16.
[9] abbreviates: read-out: GSK3-A (TR-FRET 1 mM ATP), GMean, IC50, 1 mM ATP, geometric mean.
The mark [10] stands for this setting: read-out: GSK3-B (TR-FRET 1 mM ATP), GMean, IC50, 1 mM ATP, geometric mean.
Where [11] appears, read: read-out: GSK3-A TR-FRET BIOCHEMICAL (TR-FRET), IC50, 1 nM GSK3α, 4 μM ATP, 30 minute preincubation.
The mark [12] stands for this setting: read-out: GSK3-B TR-FRET BIOCHEMICAL (TR-FRET), IC50, 1 nM GSK3b, 2 μM ATP, 30 minute preincubation.

Read-outs that look alike come from different tables or passages of the source. Bounds are passed on as bounds.

Take `CC[C@]1(c2cccc(-c3ccnc(OC)c3F)c2)C2=C(CC(C)(C)NC2=O)Nc2n[nH]cc21`: the IC50 in test [1] (setting [3]) was 100 to 1000 nM; in test [2] (setting [4]) it was more than 5000 nM.
Take `CCC1(c2cccc(N(C)c3cccnc3C)c2)C2=C(CC(C)(C)CC2=O)Nc2n[nH]cc21` (centres unmarked): the figures for the IC50 in test [1] (setting [5]) and in test [2] (setting [6]) were 100 to 1000 nM and 1000 to 5000 nM, respectively.
On to `CCC1(c2cccc(-c3ccncc3)c2)C2=C(CC(C)CC2=O)Nc2n[nH]cc21` (centres unmarked), for which the IC50 in test [1] (setting [3]) is less than 100 nM; in test [2] (setting [4]), 100 to 1000 nM.
`CCC1(c2cccc(O)c2)C2=C(CC(C)(C)CC2=O)Nc2n[nH]cc21` (centres unmarked): the figures for the IC50 in test [1] (setting [5]) and in test [2] (setting [6]) were less than 100 nM and 100 to 1000 nM, respectively.
Take `CC[C@@]1(c2cccc(N(C)c3cccc(C(F)(F)F)c3)c2)C2=C(CC(C)(C)CC2=O)Nc2n[nH]cc21`: the IC50 in test [1] (setting [5]) and in test [2] (setting [6]) was more than 5000 nM in each case.
`CCC1(c2cccc(-c3cc(C)ncc3F)c2)C2=C(CC(C)(C)NC2=O)Nc2n[nH]c(C(F)(F)F)c21` (centres unmarked): the IC50 in test [1] (setting [3]) and in test [2] (setting [4]) was less than 100 nM throughout.
As to `CC[C@@]1(c2cccc(Cc3ncccn3)c2)C2=C(CC(C)(C)CC2=O)Nc2n[nH]cc21`, the IC50 in test [1] (setting [7]) and in test [2] (setting [8]) was less than 100 nM throughout.
For `CC[C@]1(c2cccc(-c3cnn(Cc4cccc(F)c4F)c3)c2)C2=C(CC(C)(C)NC2=O)Nc2n[nH]cc21`, the IC50 is less than 100 nM in test [1] (setting [5]) and 100 to 1000 nM in test [2] (setting [6]).
In the case of `CC[C@]1(c2cccc(-c3ccnc(C)c3)c2)C2=C(Nc3n[nH]cc31)[C@@H]1CC[C@@H](C1)C2=O`, the results for the IC50 in test [1] (setting [7]) and in test [2] (setting [8]) were less than 100 nM and 100 to 1000 nM, respectively.
Consider `CC[C@@]1(c2cccc(-c3c(F)cncc3Cl)c2)C2=C(CC(C)(C)NC2=O)Nc2n[nH]cc21`, for which the IC50 in test [1] (setting [3]) is 1000 to 5000 nM; in test [2] (setting [4]), more than 5000 nM.
Turning to `CCC1(c2cccc(-c3ccncc3O)c2)C2=C(CC(C)(C)CC2=O)Nc2n[nH]c(C)c21` (centres unmarked), the IC50 in test [1] (setting [7]) and in test [2] (setting [8]) was less than 100 nM each time.
`CC[C@@]1(c2cccc(-c3ccnc(C)c3)c2)C2=C(CC(C)(C)CC2=O)Nc2n[nH]cc21`: the IC50 was 100 to 1000 nM in test [1] (setting [9]), less than 100 nM in test [1] (setting [3]), more than 5000 nM in test [2] (setting [10]) and 100 to 1000 nM in test [2] (setting [4]).
Turning to `CC[C@@]1(c2cccc(-c3ccnn3C)c2)C2=C(C[C@]3(CCOC3)NC2=O)Nc2n[nH]cc21`, the IC50 in test [1] (setting [3]) and in test [2] (setting [4]) was less than 100 nM each time.
For `CC[C@]1(c2cccc(N(C)c3ncccn3)c2)C2=C(CC(C)(C)NC2=O)Nc2n[nH]c(F)c21`, the IC50 is 100 to 1000 nM in test [1] (setting [5]) and more than 5000 nM in test [2] (setting [6]).
Take `CC[C@@]1(c2cccc(C(F)(F)F)c2)C2=C(C[C@@H](C)CC2=O)Nc2n[nH]cc21`: the IC50 was 100 to 1000 nM in test [1] (setting [9]), less than 100 nM in test [1] (setting [3]), 1000 to 5000 nM in test [2] (setting [10]) and less than 100 nM in test [2] (setting [4]).
For the molecule `CC[C@@]1(c2cccc(-c3c(F)cncc3OC)c2)C2=C(CN(Cc3ccccc3)C2=O)Nc2n[nH]cc21`, the IC50 was 100 to 1000 nM in test [1] (setting [9]), less than 100 nM in test [1] (setting [11]), 1000 to 5000 nM in test [2] (setting [10]) and less than 100 nM in test [2] (setting [12]).
Take `CC[C@@]1(c2cccc(N(C)c3nccc(OC)n3)c2)C2=C(CC(C)(C)CC2=O)Nc2n[nH]cc21`: the IC50 was 100 to 1000 nM in test [1] (setting [9]), less than 100 nM in test [1] (setting [7]), 1000 to 5000 nM in test [2] (setting [10]) and less than 100 nM in test [2] (setting [8]).
As to `CCC1(c2cccc(-c3ccncc3C)c2)C2=C(CC(C)(C)NC2=O)Nc2n[nH]c(C)c21` (centres unmarked), the IC50 in test [1] (setting [11]) and in test [2] (setting [12]) was less than 100 nM each time.
For the molecule `CCC1(c2cccc(N(C)C(=O)c3ccccc3)c2)C2=C(CC(C)(C)CC2=O)Nc2n[nH]cc21` (centres unmarked), the IC50 in test [1] (setting [5]) is less than 100 nM; in test [2] (setting [6]), 100 to 1000 nM.
Take `CC[C@@]1(c2cccc(C(F)(F)F)c2)C2=C(C[C@@H](c3ccccc3)NC2=O)Nc2n[nH]cc21`: the values for the IC50 in test [1] (setting [11]) and in test [2] (setting [12]) were less than 100 nM and 100 to 1000 nM, respectively.
As for `CC[C@]1(c2cccc(-c3ccnc(C)c3)c2)C2=C(Nc3n[nH]cc31)[C@H]1CC[C@@H](C2)C1`, the IC50 in test [1] (setting [7]) is 1000 to 5000 nM; in test [2] (setting [8]), more than 5000 nM.
For `CC[C@]1(c2cccc(C(F)(F)F)c2)C2=C(CC3(CCC3)NC2=O)Nc2n[nH]cc21`, the IC50 in test [1] (setting [11]) is 100 to 1000 nM; in test [2] (setting [12]), more than 5000 nM.
As for `CC[C@@]1(c2cccc(-c3ccn(C)n3)c2)C2=C(CC(C)(C)CC2=O)Nc2n[nH]c(C)c21`, the IC50 in test [1] (setting [9]) is 100 to 1000 nM; in test [1] (setting [5]), less than 100 nM; in test [2] (setting [10]), 100 to 1000 nM; in test [2] (setting [6]), less than 100 nM.
On to `CC[C@]1(c2cccc(-c3ccnn3C)c2)C2=C(CC(C)(C)CC2=O)Nc2n[nH]c(C)c21`, for which the IC50 in test [1] (setting [9]) is more than 5000 nM; in test [1] (setting [5]), 1000 to 5000 nM; in test [2] (setting [10]) it was more than 5000 nM; in test [2] (setting [6]), more than 5000 nM.
For `CC[C@@]1(c2cccc(-c3cc(C)ncc3OC)c2)C2=C(CC(C)(C)NC2=O)Nc2n[nH]cc21`, the values for the IC50 in test [1] (setting [5]) and in test [2] (setting [6]) were less than 100 nM and 100 to 1000 nM, respectively.
With `CC[C@@]1(c2cccc(OC(C)C)c2)C2=C(CC(C)(C)CC2=O)Nc2n[nH]cc21` [Compound 811563], the IC50 in test [1] (setting [3]) and in test [2] (setting [4]) was less than 100 nM in each case.
In the case of `CC[C@@]1(c2cccc(-c3ccnc4ccc(Cl)cc34)c2)C2=C(CC(C)(C)NC2=O)Nc2n[nH]cc21`, the IC50 in test [1] (setting [3]) lay within 100 to 1000 nM; in test [2] (setting [4]), 1000 to 5000 nM.
For `CCC1(c2cccc(-c3ccnn3C)c2)C2=C(CC(C)(C)CC2=O)Nc2n[nH]cc21` (centres unmarked) [Compound 911992], the IC50 in test [1] (setting [5]) and in test [2] (setting [6]) was less than 100 nM throughout.
`CC[C@@]1(c2cccc(C(F)(F)F)c2)C2=C(CCN(c3cnsc3)C2=O)Nc2n[nH]cc21`: the figures for the IC50 in test [1] (setting [5]) and in test [2] (setting [6]) were less than 100 nM and 100 to 1000 nM, respectively.
For `CCC1(c2cccc(N(C)c3nccn3C)c2)C2=C(CC(C)(C)CC2=O)Nc2n[nH]cc21` (centres unmarked), in that order: 100 to 1000 nM and 1000 to 5000 nM.
Regarding `CCC1(c2cccc(-c3cnn(C)c3)c2)C2=C(CC(C)(C)NC2=O)Nc2n[nH]c(F)c21` (centres unmarked) [Compound 949011], the IC50 in test [1] (setting [3]) was less than 100 nM; in test [2] (setting [4]), 100 to 1000 nM.
Consider `CC[C@@]1(c2cccc(Br)c2)C2=C(C[C@H](C(F)(F)F)CC2=O)Nc2n[nH]cc21`, for which the IC50 in test [1] (setting [3]) was less than 100 nM; in test [2] (setting [4]), 100 to 1000 nM.
Take `CC[C@]1(c2cccc(N3C[C@@H](C)[C@H](C)C3)c2)C2=C(CC(C)(C)CC2=O)Nc2n[nH]cc21`: the IC50 was 1000 to 5000 nM in test [1] (setting [5]) and more than 5000 nM in test [2] (setting [6]).
As for `CC[C@]1(c2ccccc2)C2=C(CC(C)(C)CC2=O)Nc2n[nH]c(C(F)F)c21`, the IC50 is less than 100 nM in test [1] (setting [3]) and 100 to 1000 nM in test [2] (setting [4]).
As to `CCC1(c2cccc(C(F)(F)F)c2)C2=C(CCN(c3ccccc3)C2=O)Nc2n[nH]cc21` (centres unmarked) [Compound 929474], the IC50 was less than 100 nM in test [1] (setting [11]) and 100 to 1000 nM in test [2] (setting [12]).
Regarding `CC[C@]1(c2cccc(Oc3ncccn3)c2)C2=C(CC(C)(C)NC2=O)Nc2n[nH]c(F)c21`, the IC50 was 100 to 1000 nM in test [1] (setting [9]), less than 100 nM in test [1] (setting [5]), more than 5000 nM in test [2] (setting [10]) and 100 to 1000 nM in test [2] (setting [6]).
In the case of `CCC1(c2cccc(-c3ccnc(C(C)(C)C)c3)c2)C2=C(CC(C)(C)CC2=O)Nc2n[nH]cc21` (centres unmarked), the IC50 in test [1] (setting [7]) fell in the range of 100 to 1000 nM; in test [2] (setting [8]), 1000 to 5000 nM.
Take `CC1(C)CC(=O)C2=C(C1)Nc1n[nH]c(CC(F)(F)F)c1[C@]21CCc2c(F)cccc21`: the IC50 in test [1] (setting [3]) and in test [2] (setting [4]) was 100 to 1000 nM throughout.
`CC[C@@]1(c2cccc(-c3ccnn3C)c2)C2=C(C[C@@]3(CCCOC3)NC2=O)Nc2n[nH]cc21`: the IC50 in test [1] (setting [3]) was 1000 to 5000 nM; in test [2] (setting [4]), more than 5000 nM.
